According to patent US20070043122A1, “Use of 2,2,3,3, tetramethylcyclopropane carboxylic acid derivatives for treating psychiatric disorders” (YISSUM RESEARCH DEVELOPMENT CO. OF THE HEBREW UNIVERSITY OF …, priority 2003, published 2007):

Assays:
human brain MIP synthase = molecular target: T1, human brain MIP synthase (Homo sapiens, UniProt Q9NPH2); experiment: Human brain MIP synthase activity in postmortem prefrontal cortex homogenate; type: biochemical
T1 construct: supernatant fraction obtained after sonication; from tissue; host or cells: postmortem human prefrontal cortex, 9,000 x g supernatant of sonicated homogenate
T1 sequence (Q9NPH2 1-558): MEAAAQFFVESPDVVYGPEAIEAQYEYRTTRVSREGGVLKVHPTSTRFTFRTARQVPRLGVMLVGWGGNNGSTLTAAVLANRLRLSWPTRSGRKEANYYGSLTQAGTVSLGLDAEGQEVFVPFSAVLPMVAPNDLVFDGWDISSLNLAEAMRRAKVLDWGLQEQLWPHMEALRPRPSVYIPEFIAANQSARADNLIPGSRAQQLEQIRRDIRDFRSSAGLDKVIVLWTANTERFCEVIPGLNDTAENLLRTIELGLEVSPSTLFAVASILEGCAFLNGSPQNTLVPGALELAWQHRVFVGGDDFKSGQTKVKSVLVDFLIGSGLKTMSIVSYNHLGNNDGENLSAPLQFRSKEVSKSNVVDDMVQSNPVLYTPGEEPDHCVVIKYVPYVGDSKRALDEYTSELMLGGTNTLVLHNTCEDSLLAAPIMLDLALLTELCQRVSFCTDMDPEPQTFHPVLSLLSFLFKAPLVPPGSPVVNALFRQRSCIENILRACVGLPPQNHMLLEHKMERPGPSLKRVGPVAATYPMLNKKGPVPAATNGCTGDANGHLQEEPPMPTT
Experimental: Human brain MIP synthase activity. Five μl of the supernatant fraction obtained after sonication (Ultrasonic Processor, Newtown, Conn., 15 sec at 0.1 output watts at 4° C.) and centrifugation for 20 min at 9,000×g at 4° C. of postmortem human prefrontal cortex (1 mg wet weight in 0.5 ml of 50 mM Tris HCl, pH 7.4) were added to 20 μl reaction mixture containing 4 mM D-glucose-6-phosphate, 1.25 μCi D-glucose-6-phosphate [^14C], 1.6 mM NAD^+, 0.45 mM KCl, 5.4 mM MgCl2 and 0.9 mM Tris HCl, pH 7.6, with or without 5 mU IMPase (Sigma, St. Louis). Incubation with or without various drugs concentrations (table 2 and table 3) was carried out for 3 hours (within the linear range) at 37° C. The reaction was stopped by adding 50 μl cold double distilled water (ddH20). Seventy out of the 80 μl were added to test tubes containing 1.25 g strong basic anion resin (Amberjet 4200, Rohm and Haas, Philadelphia) in 1 ml ddH2O. The mixtures were vortexed for 10 min, then centrifugated for 10 min at 10,000×g at room temperature, and 200 μl supernatant taken for ^14C counting (Liquid Scintillation Counter, Kontron, Basel). The enzymatic activity was calculated by subtracting values without IMPase from the measures with IMPase. The measurements were carried out in triplicate.
Table 2 details the drugs and their concentrations compared with their therapeutic concentrations, studied for possible inhibition of human brain MIP synthase activity. Each drug was tested twice, each experiment in triplicate.

[1] = in vivo; cited from earlier work

inhibited MIP synthase activity (which of the other psychotropic drugs) (human brain MIP synthase; at concentrations 1.5 times greater than their upper therapeutic range (concentrations in Table 2))	Km of MIP synthase for glucose-6-phosphate in the presence of VPA (human brain MIP synthase; 0.525 mM VPA, without VPA 0.625 mM)	Vmax of MIP synthase in the presence of VPA (human brain MIP synthase; 0.525 mM VPA, without VPA 0.02) [nmoles/min×mg protein]	mode of inhibition of MIP synthase (human brain MIP synthase; glucose-6-phosphate 0.48-2.48 mM, 0.525 mM VPA, Lineweaver-Burk plot)	SMILES	drug levels in brain relative to blood levels [1]	half-life time in mice relative to humans [1]
None				Nc1nnc(-c2cccc(Cl)c2Cl)c(N)n1 [lamotrigine]		
	does not change	0.006	noncompetitive	CCCC(CCC)C(=O)O [VPA, valproic acid]	about 20%	ten times higher
